Test [1] concerns the target T1, trypsin-like activity of purified rabbit 20S proteasomes (Oryctolagus cuniculus, UniProt G1SWK8).
T1 construct: Purified rabbit muscle 20S proteasome was obtained from Boston Biochem; purchased Boston Biochem (Cambridge, Mass.); host or cells: rabbit muscle
T1 sequence (G1SWK8 1-271): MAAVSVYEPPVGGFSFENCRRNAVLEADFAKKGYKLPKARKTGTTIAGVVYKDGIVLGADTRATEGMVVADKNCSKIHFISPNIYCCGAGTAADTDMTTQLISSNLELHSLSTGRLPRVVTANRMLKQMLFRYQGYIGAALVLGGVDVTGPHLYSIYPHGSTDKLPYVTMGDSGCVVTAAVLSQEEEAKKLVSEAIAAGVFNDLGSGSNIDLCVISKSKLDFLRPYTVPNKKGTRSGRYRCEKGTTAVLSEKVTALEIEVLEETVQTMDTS
Briefly: In vitro inhibition of trypsin-like activity of purified rabbit muscle 20S proteasome (Boc-LRR-AMC, no SDS). In kind it is biochemical. As to conditions: purified rabbit 20S proteasome. As to the method: (§1) The compound XVI-1A as obtained synthetically using a method described herein and by fermentation as described in U.S. Pat. No. 7,144,723, which is hereby incorporated by reference in its entirety. Both the synthetic and fermentation compounds XVI-1A were prepared as 20 mM stock solution in DMSO and stored in small aliquots at −80° C. Purified rabbit muscle 20S proteasome was obtained from Boston Biochem (Cambridge, Mass.). To enhance the chymotrypsin-like activity of the proteasome, the assay buffer (20 mM HEPES, pH7.3, 0.5 mM EDTA, and 0.05% Triton X100) was supplemented with SDS resulting in a final SDS concentration of 0.035%. The substrate used was suc-LLVY-AMC, a fluorogenic peptide substrate specifically cleaved by the chymotrypsin-like activity of the proteasome. Assays were performed at a proteasome concentration of 1 μg/ml in a final volume of 200 μl in 96-well Costar microtiter plates. […] After addition of test compounds to the rabbit 20S proteasomes, the samples were preincubated at 37° C. for five minutes in a temperature controlled Fluoroskan Ascent 96-well microplate reader (Thermo Electron, Waltham, Mass.). […] After the preincubation period, the reactions were initiated by the addition of 10 μl of the diluted substrate and the plates were returned to the plate reader. […] Fluorescence of the cleaved peptide substrate was measured at λex=390 nm and λem=460 nm. […]

Chains of the proteins cited; added tags and fusions are not shown. Residues count along the entry.
UniProt G1T4Q9, 1-263: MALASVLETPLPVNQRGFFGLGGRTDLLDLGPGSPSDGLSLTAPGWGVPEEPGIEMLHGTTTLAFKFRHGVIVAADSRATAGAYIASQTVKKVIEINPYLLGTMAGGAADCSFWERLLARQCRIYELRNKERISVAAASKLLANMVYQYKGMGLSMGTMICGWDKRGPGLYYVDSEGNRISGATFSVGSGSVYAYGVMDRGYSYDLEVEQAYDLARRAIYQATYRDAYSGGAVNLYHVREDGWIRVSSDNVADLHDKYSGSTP

For test [2], the target named is chymotrypsin-like activity of purified rabbit 20S proteasomes (Oryctolagus cuniculus, UniProt G1T4Q9). The test can be described thus: In vitro inhibition of chymotrypsin-like activity of purified rabbit muscle 20S proteasome (suc-LLVY-AMC). As to conditions: purified rabbit 20S proteasome. In kind it is biochemical. As to the method: as §1
[3] abbreviates: XVI-1A obtained by fermentation.

The record followed here is US8067616B2, “Total synthesis of salinosporamide A and analogs thereof” (Nereus Pharmaceuticals, Inc., priority 2006, dated 2011).

SMILES strings stand for the structures.

For orientation: IC50 means the point on the concentration scale where inhibition reaches its midpoint. A lower IC50 goes with inhibition by little substance.

In the case of `C[C@@]12OC(=O)[C@]1([C@@H](O)[C@@H]1C=CCCC1)NC(=O)[C@@H]2CCCl` [XVI-1A, Salinosporamide A], the half-maximal inhibitory concentration (IC50) in test [1] (setting [3]) was determined as 35 nM; in test [1] (XVI-1A obtained synthetically), 37 nM; in test [2] (setting [3]), 2.6 nM; in test [2] (XVI-1A obtained synthetically), 3.2 nM.
